Results taken from patent US8623354B2, “Therapeutic compositions comprising hyaluronan and therapeutic antibodies as well as methods of treatment” (Alchemia Oncology Pty Limited, priority 2005, dated 2014).
Several values for one entry are separate records, joined by “and”; a condition that tells them apart may be missing. Equal values may be shown once.

Legend:
[1] = test system: mice bearing human colon cancer xenografts; experiment: Survival of mice bearing human colon cancer xenografts (Example 3); type: in vivo; conditions: monotherapy, before experimental endpoint day 120
Description: FIG. 3 is a graphical representation of % survival of mice bearing human colon cancer xenografts where the mice are treated with hyaluronan formulated with cetuximab (HyERB) (150/0.5) or ERB (0.5). […] The survival data can be considered as a surrogate indicator of an increased therapeutic index.
(§1) Treatment with (i) saline, (ii) HA, (iii) cetuximab (ERB), (iv) the formulation comprising HA & cetuximab (HyERB), (v) cetuximab/irinotecan and (vi) HA & cetuximab/HA & irinotecan (HyERB/HyCAMP) was commenced approximately 4-8 weeks after the tumor volume was in the range of 50-100 mm^2. Therapies were delivered by bolus IV on day 1 and 4 for a total of 5-weeks. Administration of irinotecan or HyCAMP was day 1 of a 7-day cycle for a total of 5-weeks. […] Table 4 below provides the dosage components and the mean tumor volume of each treatment group at commencement of treatment.
The overall animal survival time was calculated as the time in days that the animal lived after the commencement of treatment which will be designated Day 1.

[2] = test system: LIM1215 human colon xenografts; experiment: Tumor volume and classification of tumor progression, cetuximab with or without HA, LIM1215 xenograft model (Example 3); type: in vivo; conditions: for Complete Remission: tumor not palpable; for Static Tumor: tumor volume 50-150% of initial; for Partial Remission: tumor volume <50% of initial; for Progressing Tumor: tumor volume >150% of initial
Description: To evaluate the effect of hyaluronan on the efficacy of therapeutic doses of cetuximab in the treatment of both colon cancer in nude mice as either monotherapy or in combination with irinotecan or its hyaluronan formulation (HyCAMP). Specific consideration of the follow efficacy parameters: • Primary Tumor Volume • Cancer Metastasis • Treatment toxicity in relation to • Body mass • Organ mass • Survival Test and Control Articles
The test articles and dosages which will be used in the study are as follows: • Hyaluronic Acid (800-900 kD modal molecular weight); dosage 150 mg/kg or 26.6 mg/kg • Cetuximab (Erbitux; or ERB); dosage 0.5 mg/kg • Irinotecan Hydrochloride (Camptosar or CPT-11); dosage 50 mg/kg • HyERB (150/0.25) containing 150 mg/kg HA & 0.25 mg/kg cetuximab • HyERB (150/0.5) containing 150 mg/kg HA & 0.5 mg/kg cetuximab • HyCAMP (26.6/50) containing 26.6 mg/kg HA & 50 mg/kg irinotecan Human Colon Carcinoma Cell Line
The human colon carcinoma cell line LIM1215 colon carcinoma cell line was routinely cultured as monolayer in 75 cm^2 culture flasks in RPMI1640 media supplemented with 5% v/v fetal calf serum, 10 μg/ml bovine insulin, 1 mM hydrocortisone and antibacterial/antimycotic stock. For generation of the primary tumor and injection into mice, cells were grown to 80% confluency, trypsinized in 0.05% trypsin/0.01% w/v EDTA solution, washed twice by centrifugation in a Beckman TJ-6 bench centrifuge at 400 gav for 10 min, and counted using a Coulter counter then resuspended in RPMI 1640 media at 2×10^8 cell/ml. This cell line was chosen due to its CD44 receptor, its responsiveness to irinotecan only or when formulated with HA (HyCAMP) compared with irinotecan chemotherapy in a xenograft model and that cellular proliferation is controlled by TGF-a/EGF-R autocrine loop.
Athymic CBA/WEHI nude female mice, were maintained under specific pathogen-free conditions, with sterilized food and water available ad libitum. Each mouse received one injection containing 1×10^7 cells in 50-100 μl. The cells were injected with a 26-gauge needle into the mammary fat pad directly under the first nipple.
as §1
The mice were randomly distributed into each of six treatment groups (n=8 per group). Individual mice were placed in an injection box and treatment administration was via the tail vein using a 26-gauge needle. To ensure the accuracy of each administered dosage, syringes were weighed before and after injection using an analytical; four decimal place balance.
Individual injections were prepared according to individual mouse masses, with the aim of delivering 50 mg/kg irintoecan (equivalent to human therapeutic dose of 208 mg/m^2; MIMS 1999). Single batches of 10 mg/mL solution were prepared and packaged into single use 100 mL sterile glass vials and undergo standard chemical and microbiology testing. Hyaluronan formulated with irinotecan [HyCAMP(150/50)] was prepared by mixing a portion of the 4 mg/ml irinotecan stock with the hyaluronan solution to a final HA concentration equivalent to 150 mg/kg of mouse mass and 50 mg/kg irinotecan. Hyaluronan formulated with cetuximab [HyERB(150/0.5)] was prepared by mixing a portion of 2 mg/mL cetuximab stock with the HA solution to a final HA concentration of 150 mg/kg of mouse mass and 0.5 mg/kg cetuximab. […]

Cetuximab [ERB(0.5)]
day on which a mouse was humanely killed because tumor volume was over 1000 mm^3 [1]: 53 days and 85 days | Complete Remission ([2]; Day 15, nude mice, IV day 1, 4 x 5 weeks): 0% | Static Tumor ([2]; Day 15): 100% | Partial Remission ([2]; Day 15): 0% | Progressing Tumor ([2]; Day 15): 0% | Complete Remission ([2]; Day 46): 0% | Static Tumor ([2]; Day 46): 100% | Partial Remission ([2]; Day 46): 0% | Progressing Tumor ([2]; Day 46): 0% | Complete Remission ([2]; Day 71): 0% | Static Tumor ([2]; Day 71): 86% | Partial Remission ([2]; Day 71): 0% | Progressing Tumor ([2]; Day 71): 14% | Complete Remission ([2]; Day 92): 0% | Static Tumor ([2]; Day 92): 86% | Partial Remission ([2]; Day 92): 0% | Progressing Tumor ([2]; Day 92): 14% | Complete Remission ([2]; Day 113): 0% | Static Tumor ([2]; Day 113): 86% | Partial Remission ([2]; Day 113): 0% | Progressing Tumor ([2]; Day 113): 14% | Complete Remission ([2]; Day 120): 0% | Static Tumor ([2]; Day 120): 71.4% | Partial Remission ([2]; Day 120): 0% | Progressing Tumor ([2]; Day 120): 28.6% | Tumor response, dose dependence ([2]; cetuximab (0.25) compared with cetuximab (0.5) mg/kg): dose dependant | Day at which tumors reached a 400% increase in tumor volume ([2]; monotherapy, cetuximab 0.25 mg/kg with or without 150 mg/kg HA): 58 days
